Values quoted from earlier work, collected in patent publication US12005185B2, “Medical counter measures including dry powder formulations and associated methods” (dated 2024).

What was measured:
[1] = not given; remark: listed apart in the source

Molecule | half-life | long-term stability in solution [1]
O=C(O)C(=O)CS | too short to be clinically effective | 
sulfanegen |  | poor long-term stability in solution
